# Values quoted from earlier work, collected in patent publication US11420922B2, “Hydroxylated tropolone inhibitors of nucleotidyl transferases in herpesvirus and Hepatitis B and uses therefor” (Saint Louis University, priority 2015, dated 2022).
# System: HBV
# Details: human, in vivo; cited from earlier work
substance,measurement,value
Interferon α: FDA approved drug to treat chronic HBV,patients with sustained clinical improvement,20-30%
